This is a sample that favours compounds with a hit; in the whole collection about 2.4% have one here.
Rango release inh: inhibition of RanGTP-driven Rango-importin beta dissociation. O95149+P62826. Biochemical FRET Rango-importin beta, RanGTP-induced dissociation. Potency, µM (highest dose often 46.1 µM). actives 0.071% (n = 340,000); calls by dose curve; note: nearly all actives have a fitted effect of over 45% in size
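Rango (0.1 uM)–importin beta (0.25 uM) complex; RanGTP-RCC1 trigger; 45 min RT; CFP/YFP FRET read.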
ELG1 repair inh: inhibitors of ELG1-dependent DNA repair in HEK293T cells; actives 2.3% (n = 330,000); Potency, µM (top dose mostly 46.1 µM), usual class: inhibitors; HEK293T ELG1-luciferase reporter, luminescence, 16 h; DNA damage induced by 5-fluorouridine; note: nearly all actives have a fitted effect of over 55% in size
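5-Fluorouridine DNA damage + compound/DMSO, 2,000 cells/well, 16 h, 37 °C/5% CO2. ONE-Glo, 30 min RT, luminescence. Readout = decrease in reporter signal.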
Rango complex inh: Rango-importin beta binding inhibition; Rango CFP/YFP FRET sensor + importin beta, 45 min; Potency, µM (doses to about 92.2 µM); Q14974; AID 540263; actives 0.031% (n = 340,000); calls by dose curve; note: nearly all actives have a fitted effect of over 15% in size
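Inhibition scored from the CFP 486 nm/YFP 530 nm FRET ratio 45 min after adding 0.125 microM importin beta to 50 nM Rango biosensor preincubated 5 min with compound (room temperature, PBS with DTT, Tween-20, BSA). No-importin wells as positive control.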
PKM2 act: PKM2 (human) enzyme activation | P14618 | purified PKM2, Kinase-Glo ATP luminescence, activation; response scale: 0% is enzyme alone, no compound | Potency, µM (doses to about 57.5 µM), most hits filed as activators | actives 0.34% (n = 260,000) | AID 1631; note: nearly all actives have a fitted effect of over 55% in size
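Purified hPK-M2 (>95%) run at intermediate activity with 0.1 mM ADP and 0.5 mM PEP in 50 mM imidazole pH 7.2, KCl, MgCl2; 1 h room temperature. ATP formed read by Kinase-Glo luminescence; normalized to uninhibited and no-enzyme controls.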
Tb PFK inh: T. brucei PFK enzyme inhibition | actives 0.17% (n = 330,000) | T. brucei PFK, ADP-Glo luminescence | Potency, µM (highest dose often 57.5 µM), actives largely listed as inhibitors; note: nearly all actives have a fitted effect of over 60% in size
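In TEA buffer at pH 8.0 with 5 mM MgCl2, enzyme (1.25 nM) converted F6P (0.5 mM) and ATP (0.1 mM) for 45 min at room temperature. ADP product was read by luciferase luminescence.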
Tb PGK inh: T. brucei PGK inhibition; P07378; PGK/GAPDH coupled, Kinase-Glo luminescence, 60 min; Potency, µM (series often up to 57.5 µM), most hits filed as inhibitors; actives 0.043% (n = 380,000); note: nearly all actives have a fitted effect of over 60% in size
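Recombinant glycosomal PGK reaction used 1,3-bisphosphoglycerate generated in-well by GAPDH (100nM final) in 100mM TEA pH 7.6, 5mM MgCl2, 0.01% Tween-20. After 60 minutes at room temperature, ATP was read by Kinase-Glo Plus luminescence end-point.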
A number is an active result; [ ] = another dose, or the depositor's remark. Unless noted, calls come from the whole dose curve; as a rule, active = well fitted curve in the direction sought with a large enough effect; inconclusive = small, poorly fitted or top-dose-only effect, or another doubt; inactive = no such curve, though single readings can be large; an effect the other way counts as inactive or inconclusive.

CCN(CC)S(=O)(=O)c1ccc(N(C)C)c(NC(=O)CSCc2c(C)noc2C)c1 was read as Rango release inh inactive, ELG1 repair inh 20.6µM, Rango complex inh inactive, PKM2 act inactive, Tb PFK inh inactive and Tb PGK inh inactive.
COc1ccc(CN(CC2CCCO2)C(=O)CN2C(=O)COc3ccccc32)cc1OC (stereo not given) was read as Rango release inh inactive, ELG1 repair inh 11.6µM, Rango complex inh inactive, PKM2 act inactive, Tb PFK inh inactive and Tb PGK inh inactive.
Screening CC(C)(C)c1ccc(S(=O)(=O)NCCN2CCOCC2)cc1 returned Tb PGK inh inactive.
For Cc1cc2nc(CCN3CCOCC3)n(S(=O)(=O)c3ccc(C(C)(C)C)cc3)c2cc1C the results were Rango release inh inactive, ELG1 repair inh 20.6µM, Rango complex inh inactive, PKM2 act inactive and Tb PFK inh inactive.
Cc1ccc(NC(=O)c2ccc3c(O)c(S(=O)(=O)c4ccccc4)c(=O)[nH]c3c2)cc1Cl was read as Tb PGK inh inactive.
CCCCOc1ccc(CNC(=O)c2ccc(NC(=O)N3CCSc4ncccc43)cc2)cc1 was read as Tb PGK inh inactive.
`COC(=O)c1sc(NC(=O)c2ccc([N+](=O)[O-])o2)c(C#N)c1C` gave Rango release inh inactive, ELG1 repair inh 4.61µM, Rango complex inh inactive, PKM2 act inactive, Tb PFK inh inactive and Tb PGK inh inactive.
`O=C(CCCCn1ccc(=O)[nH]c1=O)Nc1ccc(O)c(C(=O)O)c1` gave Rango release inh inactive, Rango complex inh inactive and Tb PGK inh inactive.
For O=C(CN1CCC(n2nnc3cc(F)ccc32)CC1)NC1CC1 the results were Rango release inh inconclusive, ELG1 repair inh inactive, Rango complex inh inactive, PKM2 act inactive, Tb PFK inh inactive and Tb PGK inh inactive.
For O=C(CN1CCC(n2nnc3cc(F)ccc32)CC1)NC1CCCCC1 the results were Rango release inh inactive, ELG1 repair inh inactive, Rango complex inh inactive, PKM2 act inactive, Tb PFK inh inactive and Tb PGK inh inactive.
Screening O=C(CN1CCC(n2nnc3cc(F)ccc32)CC1)N1CCc2ccccc2C1 returned Rango release inh inactive, ELG1 repair inh 20.6µM, Rango complex inh inactive, PKM2 act inactive, Tb PFK inh inactive and Tb PGK inh inactive[11.5 µM].
`CCOc1ccc2nc(NC(=O)CN3CCC(n4nnc5cc(F)ccc54)CC3)sc2c1` gave Rango release inh inactive, ELG1 repair inh 9.2µM, Rango complex inh inactive, PKM2 act inactive, Tb PFK inh inactive and Tb PGK inh inactive.
`COc1cc(-c2noc(-c3cccs3)n2)cc(OC)c1OC` gave Rango release inh inactive, ELG1 repair inh 23.1µM, Rango complex inh inactive, PKM2 act inactive, Tb PFK inh inactive and Tb PGK inh inactive.
COc1ccccc1-c1noc(-c2cc(OC)c(OC)c(OC)c2)n1 was read as Rango release inh inactive, ELG1 repair inh 11.6µM, Rango complex inh inactive, PKM2 act inactive, Tb PFK inh inactive and Tb PGK inh inactive.
`COc1cc(-c2nc(-c3ccc(NC(=O)c4ccc(Br)o4)cc3)no2)cc(OC)c1OC` gave Rango release inh inactive, ELG1 repair inh 10.3µM, Rango complex inh inactive, PKM2 act inactive, Tb PFK inh inactive and Tb PGK inh inactive.
`COc1ccc(-c2nc(-c3ccc(NC(=O)c4ccc(Br)o4)cc3)no2)cc1OC` gave Rango release inh inactive, ELG1 repair inh inconclusive, Rango complex inh inactive, PKM2 act inactive, Tb PFK inh inactive and Tb PGK inh inactive.
For COc1cc(-c2nc(-c3cccc(C(F)(F)F)c3)no2)cc(OC)c1OC the results were Rango release inh inactive, ELG1 repair inh 23.1µM, Rango complex inh inactive, PKM2 act inactive, Tb PFK inh inactive and Tb PGK inh inactive.
For Cc1ccc(CN(C)C(=O)c2ccc(S(=O)(=O)N(C)c3ccccc3)cc2)o1 the results were Rango release inh inactive, ELG1 repair inh inactive, Rango complex inh inactive, Tb PFK inh inactive and Tb PGK inh inactive.
Screening Cc1ccc(CN(C)C(=O)c2ccccc2Oc2ccccc2)o1 returned Rango release inh inactive, ELG1 repair inh inactive, Rango complex inh inconclusive, PKM2 act 28.2µM, Tb PFK inh inactive and Tb PGK inh inactive.
`C=CCNc1nc(N2CCCCC2)c(C#N)c2c1CN(Cc1ccccc1)CC2` gave Rango release inh inconclusive, ELG1 repair inh 23.1µM, Rango complex inh inconclusive, PKM2 act inactive, Tb PFK inh inactive and Tb PGK inh inactive.
Screening O=C(Cn1cc([N+](=O)[O-])cn1)Nc1ccc(Cn2cc(Br)cn2)cc1 returned Rango release inh inactive, ELG1 repair inh inactive, Rango complex inh inactive, PKM2 act inactive, Tb PFK inh 26.9µM and Tb PGK inh inactive.
`CCc1nc2c(cnn2-c2ccc(F)cc2)c(=O)n1-c1ccc(N2CCC(C)CC2)cc1` gave Rango release inh inactive, ELG1 repair inh 16.4µM, Rango complex inh inactive, PKM2 act inactive, Tb PFK inh inactive and Tb PGK inh inactive.
`Cc1nc2c(cnn2-c2ccccc2Cl)c(=O)n1-c1ccc(N2CCC(C)CC2)cc1` gave Rango release inh inactive, ELG1 repair inh 16.4µM, Rango complex inh inactive, PKM2 act inactive, Tb PFK inh inactive and Tb PGK inh inactive.
For O=C(N/N=C1\CC(c2ccccc2)Oc2ccccc21)c1ccc(O)cc1 (stereo not given) the results were Rango release inh inactive, ELG1 repair inh 18.3µM, Rango complex inh inactive, PKM2 act inactive, Tb PFK inh inactive and Tb PGK inh inactive.
Screening O=C(NC1CCCCC1)c1ccc(-n2cnnn2)cc1 returned Rango release inh inactive, ELG1 repair inh inactive, Rango complex inh inactive, PKM2 act inactive, Tb PFK inh inactive and Tb PGK inh inactive.
Cc1cc2nccc(-c3ccncc3)n2n1 was read as Rango release inh inactive, ELG1 repair inh 13µM, Rango complex inh inactive, PKM2 act inactive, Tb PFK inh inactive and Tb PGK inh inactive.
Screening Cc1ccc(-c2ccnc3cc(C)nn23)cc1 returned Rango release inh inactive, ELG1 repair inh inactive, Rango complex inh inactive, Tb PFK inh inactive and Tb PGK inh inactive.
For CCCCCCCCNS(=O)(=O)CCNCCc1ccccc1 the results were Rango release inh inactive, Rango complex inh 73.1µM and Tb PGK inh inactive.
For COc1cc(C(c2nnnn2C(C)(C)C)N2CCN(c3nc4ccccc4s3)CC2)ccc1O (stereo not given) the results were Rango release inh inactive, ELG1 repair inh inactive, Rango complex inh inactive, PKM2 act 25.1µM, Tb PFK inh inactive and Tb PGK inh inactive.
